Like-named read-outs stand apart in the source and are kept apart here.
Columns and labels:
BRAF = BRAF (Homo sapiens (Human), UniProt P15056); experiment: BRAF kinase activity assay (ADP-Glo)
CRAF = CRAF (Homo sapiens, UniProt P04049); experiment: CRAF kinase activity assay (ADP-Glo)
[1] = read-out: Kinase IC50 (nM), BRAF biochemical kinase assay, BRAF
[2] = read-out: Kinase IC50 (nM), CRAF biochemical kinase assay, CRAF
[3] = read-out: Kinase IC50 (nM) BRAF
[4] = read-out: Kinase IC50 (nM) CRAF

By UniProt entry, the sequences of proteins in these tests, tags left out.
UniProt P15056, whole entry: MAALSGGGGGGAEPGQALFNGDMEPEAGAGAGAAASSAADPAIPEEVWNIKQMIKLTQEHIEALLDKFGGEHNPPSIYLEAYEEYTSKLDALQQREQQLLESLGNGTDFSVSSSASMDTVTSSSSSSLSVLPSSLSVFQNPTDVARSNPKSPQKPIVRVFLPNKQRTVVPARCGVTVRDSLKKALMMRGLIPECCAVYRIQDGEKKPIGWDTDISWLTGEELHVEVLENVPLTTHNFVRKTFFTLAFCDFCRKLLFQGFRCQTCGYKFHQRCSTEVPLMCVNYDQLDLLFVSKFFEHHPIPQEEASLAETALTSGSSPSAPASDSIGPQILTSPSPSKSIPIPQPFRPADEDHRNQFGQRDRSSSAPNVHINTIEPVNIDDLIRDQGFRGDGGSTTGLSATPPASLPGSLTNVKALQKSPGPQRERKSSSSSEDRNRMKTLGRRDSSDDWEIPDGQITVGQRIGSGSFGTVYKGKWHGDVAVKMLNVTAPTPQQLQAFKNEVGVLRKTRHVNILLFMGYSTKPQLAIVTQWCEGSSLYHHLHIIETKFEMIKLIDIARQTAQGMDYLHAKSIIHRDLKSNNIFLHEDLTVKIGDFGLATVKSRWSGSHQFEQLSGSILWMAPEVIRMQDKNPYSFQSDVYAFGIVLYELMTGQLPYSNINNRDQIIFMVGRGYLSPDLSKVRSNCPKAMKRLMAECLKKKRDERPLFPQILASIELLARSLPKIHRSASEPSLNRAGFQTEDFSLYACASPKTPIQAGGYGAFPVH
UniProt P04049, whole entry: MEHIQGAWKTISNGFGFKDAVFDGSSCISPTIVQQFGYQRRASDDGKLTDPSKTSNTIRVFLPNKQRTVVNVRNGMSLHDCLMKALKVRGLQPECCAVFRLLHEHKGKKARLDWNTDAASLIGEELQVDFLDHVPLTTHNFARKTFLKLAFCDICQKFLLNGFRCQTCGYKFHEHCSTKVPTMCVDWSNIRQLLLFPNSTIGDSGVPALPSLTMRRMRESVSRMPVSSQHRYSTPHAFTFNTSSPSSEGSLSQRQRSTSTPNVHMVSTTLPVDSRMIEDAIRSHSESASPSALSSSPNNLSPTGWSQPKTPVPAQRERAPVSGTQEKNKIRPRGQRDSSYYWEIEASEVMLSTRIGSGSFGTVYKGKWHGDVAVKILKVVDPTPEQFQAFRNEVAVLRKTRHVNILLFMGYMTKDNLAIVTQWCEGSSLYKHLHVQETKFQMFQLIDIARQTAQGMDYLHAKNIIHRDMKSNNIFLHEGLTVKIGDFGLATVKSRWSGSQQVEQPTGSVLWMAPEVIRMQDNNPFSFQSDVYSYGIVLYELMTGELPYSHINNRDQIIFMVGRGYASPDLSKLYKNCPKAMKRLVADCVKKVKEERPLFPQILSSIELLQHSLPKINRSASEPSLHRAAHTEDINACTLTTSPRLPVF

| IC50 (BRAF; [1]) | IC50 (CRAF; [2]) | IC50 (BRAF; [3]) | IC50 (CRAF; [4]) | SMILES |
| --- | --- | --- | --- | --- |
| 1 to 10 nM | < 10 nM | – | – | CS(=O)(=O)C1CCN(c2cccc3c2nnn3-c2ccc3ncnc(Nc4c(F)ccc(NS(=O)(=O)c5cccc(Cl)c5Cl)c4F)c3n2)CC1 |
| – | – | < 1 nM | < 10 nM | Cc1c(Cl)cccc1S(=O)(=O)Nc1ccc(F)c(Nc2ncnc3ccc(-n4cnc5c(N)cccc54)nc23)c1F |
| 1 to 10 nM | 10 to 50 nM | – | – | O=S(=O)(Nc1ccc(F)c(Nc2ncnc3ccc(-n4cnc5c(N6CCC7(CCCC7)CC6)cccc54)nc23)c1F)c1cccc(Cl)c1Cl |
| – | – | 1 to 10 nM | < 10 nM | O=S(=O)(Nc1ccc(F)c(Nc2ncnc3ccc(-n4nnc5ccccc54)nc23)c1F)c1cccc(Cl)c1Cl |
| 1 to 10 nM | < 10 nM | – | – | COCCOc1cccc2c1nnn2-c1ccc2ncnc(Nc3c(F)ccc(NS(=O)(=O)c4cccc(Cl)c4Cl)c3F)c2n1 |
| < 1 nM | < 10 nM | – | – | Cc1c(Cl)csc1S(=O)(=O)Nc1ccc(F)c(Nc2ncnc3ccc(-n4cc(S(=O)(=O)N(C)CCN(C)C)c5ccccc54)nc23)c1F |
| < 1 nM | < 10 nM | – | – | CCC1(O)CCN(c2cccc3c2ncn3-c2ccc3ncnc(Nc4c(F)ccc(NS(=O)(=O)c5cccc(Cl)c5Cl)c4F)c3n2)CC1 |
| – | – | 1 to 10 nM | 10 to 50 nM | Cc1c(F)cccc1S(=O)(=O)Nc1ccc(F)c(Nc2ncnc3ccc(-n4cnc5c(-c6cccnc6)cccc54)nc23)c1F |
| 1 to 10 nM | 10 to 50 nM | – | – | O=S(=O)(Nc1ccc(F)c(Nc2ncnc3ccc(-n4cnc5c(N6CCC(O)(C(F)(F)F)CC6)cccc54)nc23)c1F)c1cccc(Cl)c1Cl |
| – | – | < 1 nM | < 10 nM | Cc1c(Cl)cccc1S(=O)(=O)Nc1ccc(F)c(Nc2ncnc3ccc(-n4cc(C(=O)N5CCN(C)CC5)c5ccccc54)nc23)c1F |
